The numbers were not newly measured in US9707318B2, “Compositions of novel bone patch in bone and vascular regeneration” (priority 2009, dated 2017), which cites them from elsewhere.

For the data set, the system named is spine fusion.

As to “BMP-2: BMP-2 (Infuse), bone morphogenetic protein used in spine fusion studies”, the fusion rate (131 patients (79 BMP-2, 52 ICBG), follow-up minimum 24 months, p less than 0.001) was 96%. Further, the “SF-36 physical component score and low-back and leg pain score” value (according to the Oswestry Disability Index) is reported as “showed improvement”. Besides, the blood loss entry (in vivo) was “less blood loss”.
